Earlier results in US12343403B2, “Targeted ligand-payload based drug delivery for cell therapy” (Purdue Research Foundation, priority 2017, dated 2025).

Settings: scFv against FITC; cited from earlier work

4D5Flu: scFv against FITC, SEQ ID NO:20
Kd: 10 nM
